Read-outs that look alike come from different tables or passages of the source.
Key:
[1] = target: red blood cell cholinesterase (i.e., AChE) (Homo sapiens, UniProt P22303); details: humans, one 30 mg tablet every 8 hours; cited from earlier work
mouse blood AChE = mouse blood AChE (Mus musculus, UniProt P21836); assay: Radiometric AChE assay, in-vitro inhibition by free PB and CNC-PB; details: all time-points

The chains behind the UniProt entries cited, without tags or fusion partners. Where a name states a change or a piece, a line headed by the entry shows the natural chain unless it says otherwise. Residues count along the entry.
UniProt P22303: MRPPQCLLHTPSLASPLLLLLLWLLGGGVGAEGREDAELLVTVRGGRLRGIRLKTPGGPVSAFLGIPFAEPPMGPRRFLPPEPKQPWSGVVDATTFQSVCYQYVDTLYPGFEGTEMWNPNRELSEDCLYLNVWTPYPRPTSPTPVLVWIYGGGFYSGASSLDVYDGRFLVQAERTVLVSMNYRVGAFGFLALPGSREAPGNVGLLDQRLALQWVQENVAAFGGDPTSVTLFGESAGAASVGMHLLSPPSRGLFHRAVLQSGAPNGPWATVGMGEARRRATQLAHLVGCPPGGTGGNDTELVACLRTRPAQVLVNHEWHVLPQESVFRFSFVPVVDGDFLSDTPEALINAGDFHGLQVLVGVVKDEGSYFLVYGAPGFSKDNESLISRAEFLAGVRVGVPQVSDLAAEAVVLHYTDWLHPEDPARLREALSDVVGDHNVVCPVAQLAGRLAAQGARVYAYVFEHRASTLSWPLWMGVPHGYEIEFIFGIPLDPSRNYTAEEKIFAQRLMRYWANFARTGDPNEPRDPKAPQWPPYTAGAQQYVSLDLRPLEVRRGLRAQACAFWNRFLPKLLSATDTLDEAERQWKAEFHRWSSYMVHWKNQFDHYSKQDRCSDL
UniProt P21836, 32-614 limits assumed: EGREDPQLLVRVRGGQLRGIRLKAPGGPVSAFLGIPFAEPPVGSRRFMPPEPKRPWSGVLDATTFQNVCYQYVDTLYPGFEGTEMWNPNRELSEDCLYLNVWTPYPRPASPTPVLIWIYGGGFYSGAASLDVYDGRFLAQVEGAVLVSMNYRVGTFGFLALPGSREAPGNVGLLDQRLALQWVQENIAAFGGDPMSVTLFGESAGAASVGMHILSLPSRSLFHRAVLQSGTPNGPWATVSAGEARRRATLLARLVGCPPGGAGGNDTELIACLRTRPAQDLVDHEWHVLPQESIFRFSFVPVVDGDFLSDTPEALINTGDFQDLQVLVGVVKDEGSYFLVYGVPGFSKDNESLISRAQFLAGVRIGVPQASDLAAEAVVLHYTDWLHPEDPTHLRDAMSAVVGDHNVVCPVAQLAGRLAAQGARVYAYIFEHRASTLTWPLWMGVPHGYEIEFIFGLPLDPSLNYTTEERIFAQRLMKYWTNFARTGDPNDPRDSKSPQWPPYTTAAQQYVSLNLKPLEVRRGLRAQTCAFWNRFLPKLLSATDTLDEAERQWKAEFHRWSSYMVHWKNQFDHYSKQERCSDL

Structure (SMILES): CN(C)C(=O)Oc1ccc[n+](C)c1
- functional toxicity score (male CD1 mice; 20 mg/kg, 45 min and 2-hour time-points): 3
- functional signs of toxicity (male CD1 mice; 20 mg/kg, by 2.5 hours after dosing): no obvious functional signs
- functional toxicity score (male CD1 mice; 39.5 mg/kg, around 30 minutes after dosing): 3
- functional toxicity score (peak) (male CD1 mice; 39.5 mg/kg, at 3-4 hours): 4
- time of death (male CD1 mice; 39.5 mg/kg, one mouse): 270 min
- time of death (male CD1 mice; 51.3 mg/kg, one mouse): about 50 minutes
- toxicity outcome (male CD1 mice; 112.7 mg/kg, one mouse): severe signs and death within one minute
- MTD (maximum tolerated, non-lethal dose) (male CD1 mice; mice, gavage, observed to 24 hours): 20 mg/kg
- inhibition of red blood cell cholinesterase [1]: 20-40%
- AChE activity compared to PBS (mouse blood AChE): lower

Reference: patent publication US11857632B1, “Nanocellulose as an embedding matrix and applications thereof” (dated 2024)
